The source of these data is patent US20030119716A1, “Methods for screening, treating and diagnosing G-protein coupled receptor-related disorders and compositions thereof” (Wyeth, priority 2001, published 2003).

SMILES strings stand for the structures. “Also recorded” adds a separate entry of the source.

What all share (type): cell-based, Chinese hamster
One assay deals with Erk1/2 phosphorylation. Put plainly: Western blot of phospho-Erk1/2 in CHO-D2R cells. How it is done:
Luciferase and β-Gal activities were measured after incubation with quinpirole for 5 hours. Numbers shown represent at least two independent experiments, each with triplicate transfections. […] Cell lysates were prepared by incubating cells for 5 minutes on ice with a lysis buffer containing […] NaCl, 50 mM Tris, pH 7.5, 5 mM EDTA, 1% Triton, and a mixture of protease inhibitors. Cells were then scraped off plates and sonicated. The detergent-insoluble material was removed by microcentrifugation for 10 minutes at 4° C. An equal amount of protein was run on SDS gels (Novex, Carlsbad, Calif.) and transferred to nitrocellulose (Bio-Rad, Hercules, Calif.). […] The membrane was washed, incubated for 1 hour in TBS containing appropriate HRP-conjugated secondary antibodies, washed again, and developed with the ECL reagent (Amersham Pharmacia Biotech, Piscataway, N.J.).
Background: Immunoblotting shows a protein as a band on a membrane.

For assay [1], the system named is c-fos SRE activation in CHO cells stably expressing D2R. Put plainly: SRE-luciferase reporter assay, quinpirole-stimulated c-fos SRE activation in CHO-D2R cells. For orientation: Reporter assays use an easily measured gene product as a stand-in for the process of interest.
Another assay relates to Akt phosphorylation. The experiment in a line: Western blot of phospho-Akt in CHO-D2R cells.

Consider `CCCN1CCC[C@@H]2Cc3n[nH]cc3C[C@H]21` [quinpirole], for which the “Erk1/2 phosphorylation on quinpirole stimulation” value in the assay with Erk1/2 phosphorylation was “resulted in phosphorylation of Erk1/2”. In assay [1], the “SRE activation on quinpirole stimulation” value is given as “dose-dependent SRE activation; also recorded: stimulates c-fos SRE activation”, the “induction of the luciferase activity (SRE activation)” value was “approximately 7 fold” and the “maximal activation of the SRE-reporter gene” value was “about 20 fold”. Besides, the “Akt phosphorylation on quinpirole stimulation” value with Akt phosphorylation is reported as “elicited phosphorylation of Akt”.
